Experimental data: patent US8609708B2 (Human BioMolecular Research Institute, priority 2003, dated 2013)

Amino acid sequences for entries named in this document (tags omitted). A change or cut given only in a name is not applied to a line headed by its entry.
UniProt P11509: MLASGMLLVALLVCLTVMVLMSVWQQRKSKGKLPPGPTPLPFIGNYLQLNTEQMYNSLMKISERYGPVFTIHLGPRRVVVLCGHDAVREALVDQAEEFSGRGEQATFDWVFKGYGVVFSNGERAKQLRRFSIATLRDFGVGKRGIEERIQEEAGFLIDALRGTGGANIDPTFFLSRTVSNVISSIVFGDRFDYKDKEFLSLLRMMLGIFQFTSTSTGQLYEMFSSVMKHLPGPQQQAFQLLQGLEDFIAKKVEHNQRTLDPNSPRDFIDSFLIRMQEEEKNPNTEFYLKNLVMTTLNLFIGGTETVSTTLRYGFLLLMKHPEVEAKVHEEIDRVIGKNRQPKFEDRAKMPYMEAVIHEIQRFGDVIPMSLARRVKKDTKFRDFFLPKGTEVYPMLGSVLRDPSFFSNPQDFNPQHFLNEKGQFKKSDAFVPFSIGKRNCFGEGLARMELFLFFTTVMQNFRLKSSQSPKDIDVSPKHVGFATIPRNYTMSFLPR
UniProt P08684, whole entry: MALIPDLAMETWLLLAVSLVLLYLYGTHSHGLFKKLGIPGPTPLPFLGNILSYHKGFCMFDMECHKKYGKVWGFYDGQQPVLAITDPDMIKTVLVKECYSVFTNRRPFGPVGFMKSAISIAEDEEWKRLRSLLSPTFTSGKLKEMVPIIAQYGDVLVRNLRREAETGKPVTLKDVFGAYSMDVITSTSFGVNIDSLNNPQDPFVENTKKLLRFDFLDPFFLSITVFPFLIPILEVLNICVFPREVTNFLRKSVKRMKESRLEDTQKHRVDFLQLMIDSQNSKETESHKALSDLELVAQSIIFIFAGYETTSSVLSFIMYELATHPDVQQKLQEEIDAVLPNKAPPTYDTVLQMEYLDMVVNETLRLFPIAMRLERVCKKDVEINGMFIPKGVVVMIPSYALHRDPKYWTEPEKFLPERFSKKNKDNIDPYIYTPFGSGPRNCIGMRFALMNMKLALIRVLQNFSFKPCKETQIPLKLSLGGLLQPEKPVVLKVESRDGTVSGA

Key:
human CYP2A6 = human CYP2A6 (Homo sapiens (Human), UniProt P11509); conditions: pH 7.5
CYP3A4 = CYP3A4 (Homo sapiens (Human), UniProt P08684)
Protocol: To gain insight into the selectivity of the synthetic compounds, nicotine, nicotine related alkaloids and nicotine metabolites for inhibition of other CYPs, we examined the major CYP present in human liver (i.e., CYP 3A4). […] A typical incubation mixture ([…] ), 0.5 mM NADP^+, 2.0 mM G6P, 1 U of G6P dehydrogenase, […] inhibitor was added last as to minimize interaction with the protein. After mixing on ice, the reaction was initiated by the addition of substrate and incubated at 37° C. with shaking in air. Organic extracts were injected onto a Hitachi L-7100 system equipped with a Hitachi L-7400 UV detector. Separations were done with an Altex Ultrasphere ODS (4.6 mm×250 mm, 5 μm) column. The analytes were eluted with an isocratic solvent system consisting of water/acetonitrile/methanol (30:10:60, v/v/v) at a flow rate of 1.0 mL/min. […] Quantification of substrate and metabolite was determined from peak areas of the chromatogram and comparison with standard curves. IC50 values were determined as described below.
To measure CYP3A4 activity, testosterone 6-hydroxylation was determined.

| Substance | IC50 (human CYP2A6) [µM] | Selectivity Ratio: IC50 (Inhibition of CYP3A4)/IC50 (Inhibition of CYP2A6) (CYP3A4) | IC50 (CYP3A4; human, pH 7.5) [µM] |
| --- | --- | --- | --- |
| N,N-Dimethyl-3-(pyridin-3-yl)prop-2-yn-1-amine [Compound 51] | 21.5 |  |  |
| 3-(Pyridin-3-yl)pyridine [Compound 31] |  | 8 | 57 ± 21.3 |
